The values below come from PMC8640019, “Discovery of an exosite on the SOCS2-SH2 domain that enhances SH2 binding to phosphorylated ligands” (Nature Communications, 2021).

Amino acid sequences for entries named in this document (tags omitted). Residues count along the entry.
UniProt O14508, 32-198: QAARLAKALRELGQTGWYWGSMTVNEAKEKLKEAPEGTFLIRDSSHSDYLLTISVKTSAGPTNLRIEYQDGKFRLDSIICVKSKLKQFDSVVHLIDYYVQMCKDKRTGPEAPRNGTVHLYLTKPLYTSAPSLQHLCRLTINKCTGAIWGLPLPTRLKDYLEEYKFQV

What all share (assay type): binding
In experiment [1] the target is T1, SOCS2^32–198-EloB/C (Homo sapiens, UniProt O14508).
T1 construct: SOCS2 lacking the N-terminal region (SOCS2^32–198); GST (N, cleaved yes); made in house; host or cells: E. coli BL21 (R3)
Kind of experiment: Competition SPR, immobilised biotin-GSGS-F3. Conditions: peptides with identity to F3 tested by SPR. In general terms: In SPR one partner is held on a chip, and binding of the other changes the refractive index at the surface.

For experiment [2], the target named is T1, SOCS2^32–198-EloB/C. Kind of experiment: Isothermal titration calorimetry (ITC), peptide titrated into SOCS2-EloB/C.
In experiment [3] the target is T2, SH2B (Homo sapiens, UniProt Q9NRF2).
T2 construct: not at all to the SOCS3 or SH2B SH2 domains; 6xHis (N); made in house; host or cells: E. coli
The experiment is described as follows: ITC, SH2B. The following applies: single ITC run #28 (JAK2 pY813), #26 (E11); cell SH2B. (In general: ITC needs no label: the signal is the heat of the interaction.)

The mark [4] stands for this setting: Table 1, values without asterisk, average ± range of two independent experiments.

With “TPGHLLDKFIKE [OAS, peptide from Homo sapiens OAS with identity to F3]”, in experiment [1], the “interaction with SOCS2 (detectable binding)” value (shortened to “interaction with SOCS2”) is “None of the peptides displayed detectable binding”.

As for GIKKAALMHKWPLKEI, in experiment [1], the “interaction with SOCS2” value was “None of the peptides displayed detectable binding”.

For orientation: Kd means a measure of binding affinity in units of concentration. `CC[C@H](C)[C@H](NC(=O)[C@@H](N)CC(=O)O)C(=O)N[C@@H](C)C(=O)N[C@@H](CC(C)C)C(=O)N[C@@H](CCC(N)=O)C(=O)N[C@@H](Cc1c[nH]cn1)C(=O)N[C@@H](CC(C)C)C(=O)N[C@@H](C)C(=O)N[C@@H](CC(=O)O)C(=O)N[C@@H](CCCCN)C(=O)N[C@@H](Cc1c[nH]c2ccccc12)C(=O)N[C@@H](CCSC)C(=O)N[C@@H](C)C(=O)N[C@@H](CCSC)C(=O)N[C@@H](CCC(N)=O)C(=O)N[C@@H](CC(N)=O)C(=O)O` [Peptide M8A] displayed a dissociation constant Kd in experiment [2] (setting [4]) above 10 µM.

The compound `CC[C@H](C)[C@H](NC(=O)[C@@H](N)CC(=O)O)C(=O)N[C@@H](C)C(=O)N[C@@H](CC(C)C)C(=O)N[C@@H](CCC(N)=O)C(=O)N[C@@H](Cc1c[nH]cn1)C(=O)N[C@@H](C)C(=O)N[C@@H](CCSC)C(=O)N[C@@H](CC(=O)O)C(=O)N[C@@H](CCCCN)C(=O)N[C@@H](Cc1c[nH]c2ccccc12)C(=O)N[C@@H](CCSC)C(=O)N[C@@H](C)C(=O)N[C@@H](CCSC)C(=O)N[C@@H](CCC(N)=O)C(=O)N[C@@H](CC(N)=O)C(=O)O` [Peptide L7A] had a dissociation constant Kd in experiment [2] (setting [4]) above 10 µM.

Consider GQPHLLNKFNFV [CFA54], for which the “interaction with SOCS2” value in experiment [1] is listed as “None of the peptides displayed detectable binding”.

`CSCC[C@H](NC(=O)[C@H](CC(C)C)NC(=O)[C@H](Cc1c[nH]cn1)NC(=O)[C@H](CCC(=O)O)NC(=O)[C@@H](NC(=O)[C@@H]1CCCN1C(=O)[C@@H](NC(=O)[C@H](CC(N)=O)NC(=O)[C@@H](N)Cc1ccc(O)cc1)C(C)C)[C@@H](C)O)C(=O)N[C@@H](CC(C)C)C(=O)N[C@@H](CCCCN)C(=O)N[C@@H](Cc1c[nH]c2ccccc12)C(=O)N[C@@H](CC(C)C)C(=O)N[C@@H](CO)C(=O)N[C@@H](Cc1c[nH]c2ccccc12)C(=O)N[C@@H](CCC(=O)O)C(=O)O` [Peptide E11]: the equilibrium dissociation constant (Kd) in experiment [2] (298 K, cell SOCS2-Elo B/C alone, peptide in syringe, mean ± S.D. (n≥3) or average ± range (n=2)) is 4.17 ± 3.16 µM; in experiment [2] (cell SOCS2-Elo B/C + GHRpY595, average ± range (n=2) or n=1), 0.21 µM; in experiment [3], above 40 µM.

With ARSHILDKFIET [ARMD1], the “interaction with SOCS2” value in experiment [1] is given as “None of the peptides displayed detectable binding”.

For the compound SMMCPPGMHKWKLEQC, the “interaction with SOCS2” value in experiment [1] is listed as “None of the peptides displayed detectable binding”.

In experiment [2] (setting [4]), `CC[C@H](C)[C@H](NC(=O)[C@@H](N)CC(=O)O)C(=O)N[C@@H](C)C(=O)N[C@@H](CC(C)C)C(=O)N[C@@H](CCC(N)=O)C(=O)N[C@@H](Cc1c[nH]cn1)C(=O)N[C@@H](CC(C)C)C(=O)N[C@@H](CCSC)C(=O)N[C@@H](CC(=O)O)C(=O)N[C@@H](C)C(=O)N[C@@H](Cc1c[nH]c2ccccc12)C(=O)N[C@@H](CCSC)C(=O)N[C@@H](C)C(=O)N[C@@H](CCSC)C(=O)N[C@@H](CCC(N)=O)C(=O)N[C@@H](CC(N)=O)C(=O)O` [Peptide K10A] yielded an equilibrium dissociation constant (Kd) above 10 µM.

As for EKSKLLEKFSLV [MIA2], the “interaction with SOCS2” value in experiment [1] is recorded as “None of the peptides displayed detectable binding”.

In experiment [2] (setting [4]), `CC[C@H](C)[C@H](NC(=O)[C@@H](N)CC(=O)O)C(=O)N[C@@H](C)C(=O)N[C@@H](CC(C)C)C(=O)N[C@@H](CCC(N)=O)C(=O)N[C@@H](Cc1c[nH]cn1)C(=O)N[C@@H](CC(C)C)C(=O)N[C@@H](CCSC)C(=O)N[C@@H](C)C(=O)N[C@@H](CCCCN)C(=O)N[C@@H](Cc1c[nH]c2ccccc12)C(=O)N[C@@H](CCSC)C(=O)N[C@@H](C)C(=O)N[C@@H](CCSC)C(=O)N[C@@H](CCC(N)=O)C(=O)N[C@@H](CC(N)=O)C(=O)O` [Peptide D9A] registered a Kd of 3.18 ± 0.43 µM.

With SDRRLLDKWVEL [MABP1], the “interaction with SOCS2” value in experiment [1] is “None of the peptides displayed detectable binding”.
